Literature values in patent publication US20220372042A1, “CONDENSED HETEROCYCLES AS BCL-2 INHIBITORS” (Newave Pharmaceutical Inc., priority 2019, published 2022).

The chains behind the UniProt entries cited, without tags or fusion partners.
UniProt Q07820, whole entry: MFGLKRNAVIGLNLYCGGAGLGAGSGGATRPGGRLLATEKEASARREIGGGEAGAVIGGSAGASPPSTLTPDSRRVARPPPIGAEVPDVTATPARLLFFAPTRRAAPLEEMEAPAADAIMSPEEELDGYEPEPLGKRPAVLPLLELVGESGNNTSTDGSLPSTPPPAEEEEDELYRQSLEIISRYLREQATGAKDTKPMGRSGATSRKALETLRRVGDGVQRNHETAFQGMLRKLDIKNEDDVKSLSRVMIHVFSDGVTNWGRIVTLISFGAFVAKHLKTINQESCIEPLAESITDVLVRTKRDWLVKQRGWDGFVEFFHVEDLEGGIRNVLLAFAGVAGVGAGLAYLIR
UniProt P10415, whole entry: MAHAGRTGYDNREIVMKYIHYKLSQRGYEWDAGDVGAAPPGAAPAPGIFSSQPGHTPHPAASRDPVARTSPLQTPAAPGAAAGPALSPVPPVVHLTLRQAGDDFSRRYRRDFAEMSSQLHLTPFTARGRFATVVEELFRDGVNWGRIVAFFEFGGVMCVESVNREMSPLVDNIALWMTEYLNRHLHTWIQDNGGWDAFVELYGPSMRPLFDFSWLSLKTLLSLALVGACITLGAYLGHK

How the values were obtained:
Mcl-1 = Mcl-1 (Homo sapiens, UniProt Q07820)
BCL-2 = BCL-2 (Homo sapiens, UniProt P10415)

Compound | activity to Mcl-1 (Mcl-1) | Ki (BCL-2) [nM]
CC1(C)CCC(CN2CCN(c3ccc(C(=O)NS(=O)(=O)c4ccc(NCC5CCOCC5)c([N+](=O)[O-])c4)c(Oc4cnc5[nH]ccc5c4)c3)CC2)=C(c2ccc(Cl)cc2)C1 [ABT-199] | no activity | 
CC1(C)CCC(c2ccc(Cl)cc2)=C(CN2CCN(c3ccc(C(=O)NS(=O)(=O)c4ccc(N[C@H](CCN5CCOCC5)CSc5ccccc5)c(S(=O)(=O)C(F)(F)F)c4)cc3)CC2)C1 [ABT-263] |  | ≤ 1
